This experiment concerns the target Urokinase-type plasminogen activator (Homo sapiens, UniProt P00749). As to the kind of experiment: Abbott uPA__Urokinase Human - Ki(uM). To be noted: pH 7.4; 25 °C.

For `[H]/N=C(\N)c1ccc2ccc(OC)c(OCCCBr)c2c1` [uPa_3], the Ki came to 6.39 µM.

(Values after BindingDB's records for aid1799748 (Csar, 2012).)
